In PubChem BioAssay AID811 (The Scripps Research Institute Molecular Screening Center, 2007):
The list shows a part of the results, in another mix than the full data. The source made the active and inactive calls. No stated cut-off is given here; in the data, active means inhibition above about 45%; inactive means the rest.

Amino acid sequences for entries named in this document (tags omitted).
UniProt O00206, whole entry, looked up: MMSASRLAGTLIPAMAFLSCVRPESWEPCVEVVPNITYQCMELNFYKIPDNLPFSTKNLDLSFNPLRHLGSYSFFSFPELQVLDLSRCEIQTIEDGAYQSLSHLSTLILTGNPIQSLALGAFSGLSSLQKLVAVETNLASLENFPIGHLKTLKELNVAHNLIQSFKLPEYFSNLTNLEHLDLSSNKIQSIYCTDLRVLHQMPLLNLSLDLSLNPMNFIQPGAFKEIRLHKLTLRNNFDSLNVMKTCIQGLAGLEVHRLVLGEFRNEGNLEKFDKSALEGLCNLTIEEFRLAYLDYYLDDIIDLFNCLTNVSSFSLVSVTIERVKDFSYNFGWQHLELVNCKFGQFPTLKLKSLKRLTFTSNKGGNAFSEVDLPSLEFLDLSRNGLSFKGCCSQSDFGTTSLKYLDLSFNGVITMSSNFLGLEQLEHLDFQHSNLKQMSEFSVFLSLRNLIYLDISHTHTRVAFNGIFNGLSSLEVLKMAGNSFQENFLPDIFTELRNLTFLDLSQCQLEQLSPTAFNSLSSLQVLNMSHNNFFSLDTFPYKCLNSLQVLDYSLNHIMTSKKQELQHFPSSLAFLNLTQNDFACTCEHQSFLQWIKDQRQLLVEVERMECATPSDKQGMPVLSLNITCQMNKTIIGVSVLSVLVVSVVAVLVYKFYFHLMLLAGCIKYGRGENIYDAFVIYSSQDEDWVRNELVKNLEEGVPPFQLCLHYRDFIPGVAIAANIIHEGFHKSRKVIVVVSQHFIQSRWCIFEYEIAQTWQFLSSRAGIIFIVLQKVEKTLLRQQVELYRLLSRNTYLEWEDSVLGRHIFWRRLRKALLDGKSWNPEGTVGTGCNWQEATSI

Target: Toll-like receptor 4 (Homo sapiens) (UniProt O00206)
Assay: inhibitors of human TLR4-MyD88 binding (AID 811)
Conditions: Cell-based TLR4-MyD88 binding inhibition assay; at 10 µM; hits give high values

SMILES	inhibition
CCOC(=O)/C(=N/Nc1ccc([N+](=O)[O-])cc1)N1CC1	inactive: -11.9%
O=C(OC1CN2CCC1CC2)c1cccc([N+](=O)[O-])c1 (configuration not stated)	inactive: -5.24%
